The test addresses T1, human prostate epithelial 15-lipoxygenase-2 (15-LOX-2) (Homo sapiens, UniProt O15296).
T1 construct: His6 (N); made in house
T1 sequence (O15296 1-676): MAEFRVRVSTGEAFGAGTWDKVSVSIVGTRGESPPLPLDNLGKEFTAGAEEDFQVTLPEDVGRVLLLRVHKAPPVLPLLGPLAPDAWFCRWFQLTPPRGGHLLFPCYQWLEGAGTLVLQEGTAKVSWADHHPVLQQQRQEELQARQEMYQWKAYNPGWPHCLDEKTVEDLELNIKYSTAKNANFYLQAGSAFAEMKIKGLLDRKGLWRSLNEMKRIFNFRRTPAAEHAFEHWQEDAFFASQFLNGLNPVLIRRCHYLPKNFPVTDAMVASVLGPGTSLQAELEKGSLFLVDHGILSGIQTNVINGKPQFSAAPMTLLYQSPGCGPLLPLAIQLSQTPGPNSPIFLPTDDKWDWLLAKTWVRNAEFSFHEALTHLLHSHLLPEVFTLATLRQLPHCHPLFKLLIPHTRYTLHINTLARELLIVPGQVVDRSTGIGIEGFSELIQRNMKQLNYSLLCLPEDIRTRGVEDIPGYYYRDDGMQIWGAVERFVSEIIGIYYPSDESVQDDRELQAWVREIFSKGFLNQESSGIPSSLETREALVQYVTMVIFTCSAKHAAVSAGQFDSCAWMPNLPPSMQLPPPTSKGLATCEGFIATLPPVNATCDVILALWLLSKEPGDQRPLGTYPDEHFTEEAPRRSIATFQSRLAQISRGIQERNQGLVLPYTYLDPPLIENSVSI
The test is described as follows: Lipoxygenase UV-based inhibitor assay, 15-LOX-2. It is filed as biochemical. The method, then:
Human leukocyte 5-lipoxygenase was expressed as a non-tagged protein and used as a crude ammonium sulfate protein fraction, as published previously.
Inhibitor potencies were evaluated through use of the standard UV-based inhibitor assay. The initial rates were determined by following the formation of the conjugated diene product at 234 nm (ε = 25,000 M^−1 cm^−1) with a Perkin-Elmer Lambda 40 UV/Vis spectrophotometer at one substrate concentration and varying inhibitor concentrations. All reactions were 2 mL in volume and constantly stirred using a magnetic stir bar at room temperature (23°C), with the enzyme specific buffer conditions outlined in Table 1. The substrate used for the various isozymes was arachidonic acid (AA) for 5-LOX, 12-LOX, and 15-LOX-2 and linoleic acid (LA) for 15-LOX-1, where concentrations were quantitatively determined by allowing the enzymatic reaction to go to completion. IC50 values were obtained by determining the initial rate at various inhibitor concentrations and plotting them against inhibitor concentration, followed by a hyperbolic saturation curve fit. The data used for the saturation curves were performed in duplicate or triplicate, depending on the quality of the data. […] Inhibitors were stored at −20°C in DMSO. […] The pH of the buffered D2O was determined as reported previously.

The structures appear in SMILES notation. pIC50: −log10 of the molar value. A value given as a limit tells only on which side of the number the result lay.

As usually defined, the pIC50 is the IC50 on a negative log10 scale, so that one unit is a factor of ten. A high value points to a small IC50. Compound `CC(c1cc2ccccc2s1)N(O)C(N)=O` (stereo not shown) [zileuton, reference compound] gave a negative-log IC50 (pIC50) of less than 3.82.

Values taken from publication PMC3691235, “Discovery of a Novel Dual Fungal CYP51/Human 5-Lipoxygenase Inhibitor: Implications for Anti-Fungal Therapy” (PLoS ONE, 2013).
